Literature values as cited in US20250073222A1, “METHODS FOR THE TREATMENT AND PREVENTION OF NON-VIRAL TICK-BORNE DISEASES AND SYMPTOMS THEREOF” (60 DEGREES PHARMACEUTICALS LLC, priority 2023, published 2025).

Test system: Babesia microti
Conditions: daily administration, Mongolian jirds not reported to be immunocompromised; cited from earlier work

COc1cc(NC(C)CCCN)c2ncccc2c1 (stereo not shown) [primaquine]
effect against Babesia microti: only suppressive
